Laboratory results as given in PubChem BioAssay AID2177 (The Scripps Research Institute Molecular Screening Center, 2009).
The list shows a part of the results, in another mix than the full data. The source made the active and inactive calls.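 How the source made its calls: active means inhibition above the screen-wide mean plus 3 SD, limit set per campaign (cut at about 26% in these data); inactive means the rest.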

Protein sequences, listed by entry. Tags and fused reporters are not part of them. Lines headed by an entry give the natural chain unless they say otherwise; changes in a name come on top.
UniProt O95372: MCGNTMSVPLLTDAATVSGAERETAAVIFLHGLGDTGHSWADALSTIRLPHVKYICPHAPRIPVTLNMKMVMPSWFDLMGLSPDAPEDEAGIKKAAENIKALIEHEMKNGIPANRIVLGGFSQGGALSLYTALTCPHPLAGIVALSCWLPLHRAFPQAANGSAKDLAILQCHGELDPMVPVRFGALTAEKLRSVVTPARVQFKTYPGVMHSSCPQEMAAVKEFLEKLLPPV

Biological target: Acyl-protein thioesterase 2 (Homo sapiens) (UniProt O95372)
Test: LYPLA2 inhibitors, primary screen, counter-screen for PME1 inhibitor project, biochemical, fluorescence polarization, FP-Rh probe ABPP (AID 2177);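 further: 0% = LYPLA2 with DMSO and 100% = wells lacking LYPLA2 enzyme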
Conditions: recombinant LYPLA2, FP-Rh probe fluorescence polarization; at 5.9 µM; stronger effect = higher value

Compound	inhibition
COc1ccc(N/C(=N/P(=O)(N2CCOCC2)N2CCOCC2)N2CCOCC2)cc1	inactive: 4.17%
COc1ccc2nc(NP(=O)(c3ccccc3)c3ccccc3)sc2c1	inactive: -4.18%
COc1cc(I)ccc1[As](=O)(O)O	inactive: -2.12%
Cc1c2c(nc3ccccc13)SC(C(Cl)Cl)C2 (stereo unspecified)	inactive: -2.6%
O=C(OC1CN2CCC1CC2)C12CC3CC(CC(C3)C1)C2 (stereo unspecified)	inactive: 2.55%
Cc1cc(=O)[nH]c(N[N+](=O)[O-])n1	inactive: 2.08%
CC(C)NC(=O)NP(=O)(Oc1ccccc1)Oc1ccccc1	inactive: 0.54%
CCN(CC)C(=S)SC(NC=O)C(Cl)(Cl)Cl (stereo unspecified)	inactive: 0.18%
O=[N+]([O-])c1cc([N+](=O)[O-])c(-c2ccn[nH]2)s1	inactive: -1.56%
ClCCSc1nnc(-c2cccnc2)o1	inactive: 4.79%
CC(C)c1ccc(OP(=O)(Nc2ccccn2)Oc2ccccc2F)cc1 (stereo unspecified)	inactive: 1.18%
Cc1ccc(OP(=O)(Nc2ccc([N+](=O)[O-])cn2)Oc2ccc(C)cc2)cc1	inactive: 6.49%
Cc1ccc2nc3c(c(C)c2c1)CC(C(Cl)Cl)S3 (stereo unspecified)	inactive: 0.57%
C[As](=O)(O)c1cccc(C(=O)O)c1	inactive: 8.29%
O=[As](O)(c1ccc(O)cc1)c1ccccc1O	inactive: -1.05%
COc1cc(C(=O)NCC2(N3CCOCC3)CCCCC2)ccc1OCC(C)C	inactive: 7.79%
O=P(Nc1ccccn1)(c1cccc2ccccc12)c1cccc2ccccc12	inactive: -2.08%
Cc1cc(SC(NC=O)C(Cl)(Cl)Cl)ncn1 (stereo unspecified)	inactive: -1.77%
CCOC(=O)Nc1cccc([As](=O)(O)O)c1	inactive: 5.97%
Cc1cc(SC(NC(=O)c2ccccc2)C(Cl)(Cl)Cl)nc(C(C)C)n1 (stereo unspecified)	inactive: -2.18%
CCOC(=O)Nc1ccc([As](=O)(O)O)c(O)c1	inactive: 1.26%
CCC(C)N(CC(C)C)C(=S)SC(NC(C)=O)C(Cl)(Cl)Cl (stereo unspecified)	inactive: 5.53%
O=C(OC1CN2CCC1CC2)c1cccc([N+](=O)[O-])c1 (stereo unspecified)	inactive: -0.75%
CCOC(=O)c1ccc(NC(=O)C(C)(CCl)SC)cc1 (stereo unspecified)	inactive: -4.66%
O=C(COc1ccccc1)OC1CN2CCC1CC2 (stereo unspecified)	inactive: 0.79%
O=C(Nc1ccncc1[N+](=O)[O-])c1ccc([N+](=O)[O-])cc1[N+](=O)[O-]	inactive: 6.17%

Compound	inhibition
COP1(=S)c2c(C)nn(CCC#N)c2N=C(c2ccc(F)cc2)N1C (stereo unspecified)	inactive: -0.59%
CC(C)/C=N\N=C(\N)N[N+](=O)[O-]	inactive: 2.63%
CN(C(=O)Cc1ccc(Cl)c(Cl)c1)[C@@H]1CCCC[C@H]1N1CCCC1	inactive: -2.78%
O=[As](O)(c1ccccc1Br)c1ccccc1Br	inactive: -5.85%
CC1(CBr)Cn2c(nc3ccccc3c2=O)S1 (stereo unspecified)	inactive: 2.98%
COc1ccccc1CNC(=O)COC(=O)C(O)(c1ccccc1)c1ccccc1	inactive: -0.89%
Clc1n[nH]nc1-c1nn[nH][15n]1	inactive: -9.52%
CC(C)(C)C(=O)NC(Sc1ncccn1)C(Cl)(Cl)Cl (stereo unspecified)	inactive: 3.98%
O=P1(Nc2ccccn2)COc2ccccc2OC1	inactive: 0.9%
CCC1=CC2Cc3nc4ccc(Cl)cc4c(N)c3C(C1)C2 (stereo unspecified)	inactive: -6.63%
CCOP(=O)(NC(=NC(C)c1ccccc1)NC(C)c1ccccc1)OCC (stereo unspecified)	inactive: -5.6%
CCOP(=O)(Nc1ccc(C)cn1)OCC	inactive: 2.86%
CN(CCCl)Cc1cc(Cl)c(NC2=NCCN2)c(Cl)c1	inactive: -4.56%
Nc1cccc([As](=O)(O)c2ccccc2)c1	inactive: -11%
O=[As](O)(c1cccs1)c1cccs1	inactive: 0.91%
Cc1ccc(OCC(=O)OC2CN3CCC2CC3)cc1 (stereo unspecified)	inactive: 3.5%
O=P1(Nc2ccc(Br)cn2)COc2ccccc2OC1	inactive: 5.72%
NS(=O)(=O)c1cccc(NC(=O)COC(=O)C(O)(c2ccccc2)c2ccccc2)c1	inactive: -8.23%
O=P1(Nc2ncccn2)COc2ccccc2OC1	inactive: -8.45%
CN(C)C1(CNC(=O)c2ccc(S(C)(=O)=O)cc2)CCCCC1	inactive: 5.86%
O=C(/C=C/c1ccccc1)OC1CN2CCC1CC2 (stereo unspecified)	inactive: 5.94%
Cc1nn(-c2ccccc2)c2c1P(=O)(N1CCOCC1)N(C)C(c1ccccc1)=N2 (stereo unspecified)	inactive: 4.59%
CC1CCC(C(C)C)C(OP(=O)(Nc2ccccn2)c2ccccc2)C1 (stereo unspecified)	inactive: 5.78%
Cc1ccc(C(=O)OC2CN3CCC2CC3)cc1 (stereo unspecified)	inactive: 1.08%
N#CCCN(C(=O)COC(=O)C(O)(c1ccccc1)c1ccccc1)c1ccc(F)cc1	inactive: -2.81%
CN(C(=O)Cc1ccccc1)[C@@H]1CC[C@]2(CCCO2)C[C@H]1N1CCCC1	inactive: 7.14%

Compound	inhibition
CCOP1(=S)c2c(C)nn(CCC#N)c2N=C(c2ccc(F)cc2)N1C (stereo unspecified)	inactive: -3.12%
O=[N+]([O-])c1ccc2c(c1)nnn2O	inactive: 0.81%
CN(C)C(=O)c1cc([N+](=O)[O-])cc2c1-c1c(cc([N+](=O)[O-])cc1[N+](=O)[O-])C2=O	inactive: 22.5%
CN(C(=O)Cc1ccc(Cl)c(Cl)c1)[C@H]1CC[C@@]2(CCCO2)C[C@@H]1N1CCCC1	inactive: 2.49%
NC(=O)Nc1ccc([As](=O)(O)O)cc1	inactive: 5.77%
Nc1ccccc1[As](=O)(O)c1ccccc1	inactive: -5.34%
O=C(O)COc1ccc([As](=O)(O)O)cc1[N+](=O)[O-]	inactive: 2.63%
CCOP1(=S)c2c(C)nn(CCC#N)c2N=C(c2ccccc2F)N1C (stereo unspecified)	inactive: 6.83%
O=P(Nc1nccs1)(Oc1ccccc1)Oc1ccccc1	inactive: -1.3%
O=P(Nc1nccs1)(c1ccccc1)c1nc2ccccc2s1 (stereo unspecified)	inactive: -4.69%
CS(=O)(=O)c1cc([N+](=O)[O-])c2no[n+]([O-])c2c1	inactive: -3.73%
COc1cc(C2NCCC3(OCCO3)C2(C)C)cc(OC)c1OC (stereo unspecified)	inactive: -4.92%
CCOP(=O)(Nc1cccc2ccccc12)OCC	inactive: 2.26%
Nc1cccc2c([As](=O)(O)O)cccc12	inactive: 20.6%
Cc1ccc(NCCc2c([N+](=O)[O-])cc([N+](=O)[O-])cc2[N+](=O)[O-])cc1	inactive: 11.2%
CCCOP(=S)(Nc1nc(N)cc(=O)[nH]1)OCCC	inactive: -0.07%
Cc1cccc(OCC(=O)OC2CN3CCC2CC3)c1 (stereo unspecified)	inactive: 5.8%
O=[As](O)(c1cccc(O)c1)c1cccc(O)c1	inactive: 4.88%
O=C(OC1CN2CCC1CC2)c1ccc(Cl)cc1 (stereo unspecified)	inactive: 1.69%
O=[As](O)(O)c1cccnc1	inactive: 4.17%
COc1cc(C(=O)NCC2(N3CCOCC3)CCCCC2)cc(Cl)c1OC(C)C	inactive: 4.75%
CS(=O)(=O)c1ccc(Cl)c(NC(=O)COC(=O)C(O)(c2ccccc2)c2ccccc2)c1	inactive: 1.02%
CC(=O)Nc1ccc([As](=O)(O)O)c(O)c1	inactive: 0.71%
CC(=O)Nc1ccc(Oc2c([N+](=O)[O-])cc([N+](=O)[O-])cc2[N+](=O)[O-])cc1	inactive: 2.46%
Cc1ccccc1CN(C)C(=O)COC(=O)C(O)(c1ccccc1)c1ccccc1	inactive: 0.98%
C[C@H]1OP(=O)(Oc2ccccc2)C[C@@H]2O[C@@H]21 (stereo partly specified)	inactive: -0.79%

Compound	inhibition
C[C@@H]1C=CCP(=O)(Oc2ccccc2)O1 (stereo partly specified)	inactive: 3.68%
CC(=O)c1ccc(N2CC2c2ccncc2)cc1 (stereo unspecified)	inactive: 5.78%
CC(C)(C)C(=O)NC(Sc1ccccc1)C(Cl)(Cl)Cl (stereo unspecified)	inactive: 6.56%
O=P1(Nc2nc3ccc(Cl)cc3s2)COc2ccccc2O1 (stereo unspecified)	inactive: -3.27%
CCOc1ccc(C2=NCC(CBr)S2)cc1 (stereo unspecified)	inactive: -2.95%
Cc1ccccc1OP(=O)(Nc1ccccn1)Oc1ccccc1C	inactive: 5.77%
CN(C)C(=O)Oc1noc2ccccc12	inactive: -5.5%
O=C(OC1CN2CCC1CC2)c1ccccc1 (stereo unspecified)	inactive: -5.82%
CCC(=O)N1C2C3N(C(=O)CC)C1C1N(C(=O)CC)C(C(N1C(=O)CC)N3C(=O)CC)N2C(=O)CC	inactive: 3.16%
COC(=O)c1cc2c(s1)N=C(c1ccccc1)N(C)P2(=O)N1CCOCC1 (stereo unspecified)	inactive: 1.47%
Cc1ccc(OP(=O)(Nc2ccccn2)Oc2ccc(C)cc2)cc1	inactive: -5.7%
CC(=O)NC(SC(=S)N(CC(C)C)CC(C)C)C(Cl)(Cl)Cl (stereo unspecified)	inactive: 8.65%
c1ccc(-c2nn[nH]n2)c(-c2nn[nH]n2)c1	inactive: 1.54%
CCOC(=O)NC(Sc1ccccc1)C(Cl)(Cl)Cl (stereo unspecified)	inactive: 7.21%
Cc1ccc(NP(=O)(Oc2cccc(C)c2)Oc2cccc(C)c2)nc1	inactive: -4.98%
CCNC(=S)/N=C(\N)N[N+](=O)[O-]	inactive: -0.4%
O=C(NC1CCS(=O)(=O)C1)NP(=S)(Oc1ccccc1)Oc1ccccc1 (stereo unspecified)	inactive: -0.91%
O=C(OC1CN2CCC1CC2)c1cccc(Cl)c1 (stereo unspecified)	inactive: 11.5%
C(Cc1nn[nH]n1)Cc1nn[nH]n1	inactive: 1%
Nc1ccc([As](=O)(O)c2ccc([N+](=O)[O-])cc2)cc1	inactive: 0.98%
O=[As](O)(c1ccccc1)c1ccc(O)cc1	inactive: 0.31%
O=[N+]([O-])c1ccc(O)c(/C=N/Nc2ccc([N+](=O)[O-])cc2[N+](=O)[O-])c1	inactive: 3.06%
O=[N+]([O-])c1ncn(CCn2cnc([N+](=O)[O-])n2)n1	inactive: -2.23%
